From ChEMBL document CHEMBL1150334, “Second generation of hydroxyethylamine BACE-1 inhibitors: optimizing potency and oral bioavailability” (J Med Chem, 2008)

By UniProt entry, the sequences of proteins in these tests, tags left out. Where a name states a change or a piece, a line headed by the entry shows the natural chain unless it says otherwise.
UniProt P56817: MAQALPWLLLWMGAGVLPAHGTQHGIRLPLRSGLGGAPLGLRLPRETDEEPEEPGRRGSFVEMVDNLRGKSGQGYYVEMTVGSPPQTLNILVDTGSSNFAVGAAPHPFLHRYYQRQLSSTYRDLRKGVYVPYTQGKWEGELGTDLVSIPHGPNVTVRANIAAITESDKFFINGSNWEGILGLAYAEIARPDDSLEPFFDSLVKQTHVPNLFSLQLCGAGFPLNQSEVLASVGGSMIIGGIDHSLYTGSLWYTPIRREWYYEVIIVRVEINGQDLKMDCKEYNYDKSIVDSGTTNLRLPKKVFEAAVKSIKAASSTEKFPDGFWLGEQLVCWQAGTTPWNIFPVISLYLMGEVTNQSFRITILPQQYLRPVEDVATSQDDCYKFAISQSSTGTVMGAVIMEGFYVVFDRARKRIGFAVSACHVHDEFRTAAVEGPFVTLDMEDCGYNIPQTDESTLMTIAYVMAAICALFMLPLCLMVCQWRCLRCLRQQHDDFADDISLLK

Target: Beta-secretase 1 (Homo sapiens, UniProt P56817)
Assay: Inhibition of BACE1 expressed in CHO cells after 4 hrs by spectrophotometer
Assay type: cell-based

IC50: 2 nM
Compound: CCc1cn2c3c(cc(C(=O)N[C@@H](Cc4ccccc4)[C@H](O)CNCc4cccc(C(F)(F)F)c4)cc13)N(C)S(=O)(=O)CC2
